# Earlier results in US20240018207A1, “INTERFERON TAU FC-FUSION PROTEINS AND METHODS FOR TREATING CORONAVIRUS INFECTIONS” (Southlake Pharmaceuticals, Inc., priority 2020, published 2024).
# Settings: mice fed with interferon; cited from earlier work
substance,measurement,value
"IFNB: IFN-β, type I interferon",toxicity / lymphocyte depression,significant levels of toxicity
